The numbers were not newly measured in patent publication EP1366765A1, “Use of matrix metalloproteinase inhibitors for treating neurological disorders and promoting wound healing” (priority 1996, dated 1998), which cites them from elsewhere.

For this data set, the system named is MMP-2. As to conditions: cited from earlier work.

Regarding `O=C(C[C@@H](CCCc1ccccc1)C(=O)N[C@@H](CC1CCCCC1)C(=O)NCCc1ccccc1)NO` [Compound 17], the IC50 was 0.062 nM.

For orientation: IC50 means the concentration needed to halve the response being measured.
